The list shows a part of the results, in another mix than the full data. Some of these compounds have results that are not shown, active ones among them. The source made the active and inactive calls.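 The calls were made as follows: active = at least 40% inhibition at 20 µM here, with at most 30% in a related deaminase screen; inactive = the rest.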

The chains behind the UniProt entries cited, without tags or fusion partners.
UniProt P31941, whole entry: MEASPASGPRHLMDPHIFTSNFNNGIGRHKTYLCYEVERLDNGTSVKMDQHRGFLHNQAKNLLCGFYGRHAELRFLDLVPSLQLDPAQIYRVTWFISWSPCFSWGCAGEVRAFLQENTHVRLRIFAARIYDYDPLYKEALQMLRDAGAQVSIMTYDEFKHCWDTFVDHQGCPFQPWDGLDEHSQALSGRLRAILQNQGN

In this assay the target is DNA dC->dU-editing enzyme APOBEC-3A (Homo sapiens) (UniProt P31941). Nature of the assay: APOBEC3A ssDNA deaminase inhibitors, primary screen, selectivity assay for APOBEC3G inhibitor project, biochemical, FAM/TAMRA oligo cleavage fluorescence (AID 493011).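 Also: plate controls were A3A with DMSO for no effect and wells lacking A3A enzyme for full effect.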 The following applies: recombinant A3A, FAM/TAMRA ssDNA deamination fluorescence; at 20 µM; stronger effect = higher value.
For the compound `CCN1CCCC(OC(=O)C2(O)c3ccccc3C=Cc3ccccc32)C1` (centres undefined), the inhibition was inactive: 1.74%.

As to `Cc1cc(C(=O)NCC2(N3CCCCC3)CCCCC2)ccc1[N+](=O)[O-]`, the inhibition is inactive: 4.49%.

Turning to `O=C(NCC1(N2CCCCC2)CCCCC1)c1cccc(Br)c1`, the inhibition is inactive: -4.12%.

In the case of `COc1ccc(C(=O)NCC2(N(C)C)CCCCC2)cc1`, the inhibition is inactive: -3.89%.

In the case of `C=CCN1CCN(CCOC(=O)C(O)(c2ccccc2)c2ccccc2)CC1`, the inhibition is inactive: -1.08%.

Turning to `O=C(NCC1(N2CCCCC2)CCCCC1)c1cc(F)c(F)cc1Cl`, the inhibition was inactive: 0.623%.

For the compound `Cc1ccccc1C(=O)NCC1(N2CCCCC2)CCCCC1`, the inhibition was inactive: 5.13%.

Turning to `CN(C)c1ccc(C(=O)NCC2(N(C)C)CCCCC2)cc1`, the inhibition is inactive: 0.373%.

Consider `CN(C)C1CCCC1OC(=O)C(O)(c1ccccc1)c1ccccc1` (centres undefined), for which the inhibition was inactive: -2.77%.

On to `Cc1ccc(C(=O)NCC2(N3CCCCC3)CCCCC2)cc1`, for which the inhibition is inactive: -4.74%.

`CC(C)N1C(=O)CC2(CCN(CCOC(=O)C(O)(c3ccccc3)c3ccccc3)CC2)C1=O`: the inhibition was inactive: -1.34%.

Turning to `CCN(CC)CC(C)C(C)OC(=O)C(O)(c1ccccc1)c1ccccc1` (centres undefined), the inhibition is inactive: 3.03%.

On to `COc1cc(SC)ccc1C(=O)NCC1(N(C)C)CCCCC1`, for which the inhibition was inactive: 4.02%.

Regarding `CN1[C@@H]2CC[C@H]1CC(OC(=O)C(O)(c1ccccc1)c1ccccc1)C2` (some centres undefined), the inhibition was inactive: 2.69%.

For `O=C(NCC1(N2CCCCC2)CCCCC1)c1cc([N+](=O)[O-])ccc1Cl`, the inhibition was inactive: 2.15%.

As to `CN(C)c1cccc(C(=O)NCC2(N(C)C)CCCCC2)c1`, the inhibition was inactive: 0.87%.

For `CC(C)Oc1ccc(C(=O)NCC2(N(C)C)CCCCC2)cc1`, the inhibition is inactive: -5.06%.

In the case of `COc1ccc(Br)c(C(=O)NCC2(N3CCCCC3)CCCCC2)c1`, the inhibition is inactive: 6.28%.

For `O=C(OC1CN2CCC1CC2)C(CO)(c1ccccc1)c1ccccc1` (centres undefined), the inhibition is inactive: -4.02%.

Turning to `O=C(NCC1(N2CCCCC2)CCCCC1)c1cccc(Cl)c1`, the inhibition was inactive: -1.34%.

Consider `COc1cccc(C(=O)NCC2(N3CCCCC3)CCCCC2)c1`, for which the inhibition was inactive: 3.07%.

In the case of `COc1ccc(Cl)cc1C(=O)NCC1(N(C)C)CCCCC1`, the inhibition is inactive: 6.23%.

As to `COc1cc(C(=O)NCC2(N(C)C)CCCCC2)c([N+](=O)[O-])cc1OC`, the inhibition is inactive: -3.73%.

Turning to `CN(C)C1(CNC(=O)c2ccc(Br)cc2)CCCCC1`, the inhibition was inactive: 5.69%.

The term inhibition denotes the change of the read-out against control, counted positive when it falls.

The values are drawn from PubChem BioAssay AID493011 (Sanford-Burnham Center for Chemical Genomics, 2011).
